US5569591A, “Analytical or monitoring apparatus and method” (priority 1990, dated 1996)

By UniProt entry, the sequences of proteins in these tests, tags left out. Where a name states a change or a piece, a line headed by the entry shows the natural chain unless it says otherwise.
UniProt P05030: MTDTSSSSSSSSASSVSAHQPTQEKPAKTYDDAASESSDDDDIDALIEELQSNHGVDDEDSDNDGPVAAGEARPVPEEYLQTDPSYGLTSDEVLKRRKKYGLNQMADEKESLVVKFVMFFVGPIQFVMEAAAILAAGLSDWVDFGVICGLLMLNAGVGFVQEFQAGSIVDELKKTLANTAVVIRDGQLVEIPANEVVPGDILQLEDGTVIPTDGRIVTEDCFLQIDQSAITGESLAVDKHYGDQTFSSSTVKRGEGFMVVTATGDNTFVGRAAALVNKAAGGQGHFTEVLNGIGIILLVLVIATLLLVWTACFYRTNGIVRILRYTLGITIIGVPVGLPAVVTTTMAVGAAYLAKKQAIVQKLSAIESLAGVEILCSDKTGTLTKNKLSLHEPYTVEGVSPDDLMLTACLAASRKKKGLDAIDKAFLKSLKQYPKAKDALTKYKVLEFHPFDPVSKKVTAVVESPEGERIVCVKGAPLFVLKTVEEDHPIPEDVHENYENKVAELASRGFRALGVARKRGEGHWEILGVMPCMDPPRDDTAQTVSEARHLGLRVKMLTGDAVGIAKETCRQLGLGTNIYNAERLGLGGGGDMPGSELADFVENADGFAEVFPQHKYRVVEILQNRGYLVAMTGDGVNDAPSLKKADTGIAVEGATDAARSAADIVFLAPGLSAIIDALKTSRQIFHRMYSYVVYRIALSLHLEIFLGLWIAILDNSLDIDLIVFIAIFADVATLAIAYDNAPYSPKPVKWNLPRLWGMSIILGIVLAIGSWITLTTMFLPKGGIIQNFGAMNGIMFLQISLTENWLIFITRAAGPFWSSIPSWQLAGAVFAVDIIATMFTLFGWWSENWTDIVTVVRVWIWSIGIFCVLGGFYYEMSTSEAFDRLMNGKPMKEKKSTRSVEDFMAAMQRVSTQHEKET

Target: H+-ATPase in the plasma membrane of Saccharomyces cerevisiae (Saccharomyces cerevisiae, UniProt P05030)
Type: cell-based
Design: endogenous in cells; host or cells: intact S. cerevisiae cells in suspension
Conditions: resting cell suspension; FIG. 12; read-out: Ki app (magnitude of the 3rd harmonic, ordinate plotted using a dB scale)

sodium metavanadate
Ki: ~150 µM
